# Reference: PubChem BioAssay AID1141 (ChemBank, 2008)
# Sequences of proteins named here, by UniProt entry; tags and fusion partners are left off.
# UniProt P08659, whole entry, looked up: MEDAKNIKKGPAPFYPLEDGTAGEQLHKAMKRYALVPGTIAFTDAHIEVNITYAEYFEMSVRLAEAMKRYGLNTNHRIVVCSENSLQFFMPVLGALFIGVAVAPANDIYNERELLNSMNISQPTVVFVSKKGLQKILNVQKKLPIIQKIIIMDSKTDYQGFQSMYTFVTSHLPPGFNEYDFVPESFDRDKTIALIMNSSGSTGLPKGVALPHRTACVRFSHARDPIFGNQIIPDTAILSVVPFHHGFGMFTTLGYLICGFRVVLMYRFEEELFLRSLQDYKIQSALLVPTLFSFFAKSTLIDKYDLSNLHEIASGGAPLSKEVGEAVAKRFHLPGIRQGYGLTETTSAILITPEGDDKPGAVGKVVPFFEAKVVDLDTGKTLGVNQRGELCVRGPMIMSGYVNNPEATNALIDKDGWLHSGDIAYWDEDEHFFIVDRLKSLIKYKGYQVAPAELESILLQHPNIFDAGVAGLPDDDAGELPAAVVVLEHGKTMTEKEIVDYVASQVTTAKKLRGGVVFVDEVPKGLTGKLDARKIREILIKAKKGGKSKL
# The entries are a selection whose mix differs from that of the whole data set. The source made the active and inactive calls.
# Biological target: Luciferin 4-monooxygenase (Photinus pyralis) (UniProt P08659)
# Experiment: inhibition of purified Photinus pyralis luciferase – biochemical, luminescence, purified enzyme, 2006 set, primary screen (AID 1141);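 note: cell-free assay with purified firefly luciferase at 100 ng per well in PBS; test concentration not given here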
# Settings: purified firefly luciferase, SteadyGlo luminescence, 30 min; higher = more signal, called active from +8 up or from −8 down
row,Compound,z-score
1,COP(=O)(/N=C1/CC(c2ccc(CO)cc2)=CC(C2CC2)N1Cc1cc2c(cc1Br)OCO2)OC (stereo not given),inactive: -2.27
2,O=P(/N=C1/CC(CCCO)=CC(C2CC2)N1Cc1sc2ccccc2c1Cl)(Oc1ccccc1)Oc1ccccc1 (stereo not given),inactive: -0.951
3,COP(=O)(/N=C1/CC(CCCO)=CC(c2ccc(CN3CCCC3)cc2)N1Cc1sc2ccccc2c1Cl)OC (stereo not given),inactive: -2.06
4,O=P(/N=C1/CC(c2ccc(CO)cc2)=CC(C2CC2)N1Cc1sc2ccccc2c1Cl)(Oc1ccccc1)Oc1ccccc1 (stereo not given),inactive: -0.416
5,CN1/C(=N\P(=O)(Oc2ccccc2)Oc2ccccc2)CC(CCCO)=CC1C1CC1 (stereo not given),inactive: -0.651
6,O=P(/N=C1/CC(CCCO)=CC(c2ccc(CN3CCCC3)cc2)N1Cc1sc2ccccc2c1Cl)(Oc1ccccc1)Oc1ccccc1 (stereo not given),inactive: 0.48
7,COP(=O)(/N=C1/CC(CCCO)=CC(c2cccs2)N1C)OC (stereo not given),inactive: -1.9
8,COP(=O)(/N=C1/CC(CCCO)=CC(C2CC2)N1C)OC (stereo not given),inactive: -1.43
9,COP(=O)(/N=C1/CC(CCCO)=CC(c2ccc(CN3CCCC3)cc2)N1C)OC (stereo not given),inactive: -1.58
10,COP(=O)(/N=C1/CC(CCCO)=CC(C)N1Cc1cccc(OC(F)(F)F)c1)OC (stereo not given),inactive: -2.06
11,COP(=O)(/N=C1/CC(CCCO)=CC(C2CC2)N1Cc1sc2ccccc2c1Cl)OC (stereo not given),inactive: -2.88
12,COP(=O)(/N=C1/CC(c2ccc(CO)cc2)=CC(C2CC2)N1C)OC (stereo not given),inactive: -0.445
13,O=P(/N=C1/CC(c2ccc(CO)cc2)=CC(C2CC2)N1Cc1cc2c(cc1Br)OCO2)(Oc1ccccc1)Oc1ccccc1 (stereo not given),inactive: -0.0706
14,O=P(/N=C1/CC(c2ccc(CO)cc2)=CC(c2cccs2)N1Cc1cccc(OC(F)(F)F)c1)(Oc1ccccc1)Oc1ccccc1 (stereo not given),inactive: -1.38
15,COP(=O)(/N=C1/CC(c2ccc(CO)cc2)=CC(c2cccs2)N1C)OC (stereo not given),inactive: -2.06
16,CN1/C(=N\P(=O)(Oc2ccccc2)Oc2ccccc2)CC(CCCO)=CC1c1ccc(CN2CCCC2)cc1 (stereo not given),inactive: -0.107
17,O=P(/N=C1/CC(CCCO)=CC(c2cccs2)N1Cc1cc2c(cc1Br)OCO2)(Oc1ccccc1)Oc1ccccc1 (stereo not given),inactive: -1.08
18,COP(=O)(/N=C1/CC(CCCO)=CC(c2ccc(CN3CCCC3)cc2)N1Cc1cccc(OC(F)(F)F)c1)OC (stereo not given),inactive: -1.31
19,CN1/C(=N\P(=O)(Oc2ccccc2)Oc2ccccc2)CC(c2ccc(CO)cc2)=CC1c1cccs1 (stereo not given),inactive: -1.53
20,COP(=O)(/N=C1/CC(c2ccc(CO)cc2)=CC(C2CC2)N1Cc1sc2ccccc2c1Cl)OC (stereo not given),inactive: -2.09
21,COP(=O)(/N=C1/CC(CCCO)=CC(C2CC2)N1Cc1cc2c(cc1Br)OCO2)OC (stereo not given),inactive: -1.1
22,CN1/C(=N\P(=O)(Oc2ccccc2)Oc2ccccc2)CC(CCCO)=CC1c1cccs1 (stereo not given),inactive: 0.0671
23,COP(=O)(/N=C1/CC(CCCO)=CC(C2CC2)N1Cc1cccc(OC(F)(F)F)c1)OC (stereo not given),inactive: -1.43
24,O=P(/N=C1/CC(CCCO)=CC(C2CC2)N1Cc1cc2c(cc1Br)OCO2)(Oc1ccccc1)Oc1ccccc1 (stereo not given),inactive: 0.352
25,COP(=O)(/N=C1/CC(CCCO)=CC(c2ccc(CN3CCCC3)cc2)N1Cc1cc2c(cc1Br)OCO2)OC (stereo not given),inactive: -2.11
26,O=P(/N=C1/CC(CCCO)=CC(c2ccc(CN3CCCC3)cc2)N1Cc1cc2c(cc1Br)OCO2)(Oc1ccccc1)Oc1ccccc1 (stereo not given),inactive: 0.594
27,CC1C=C(CCCO)C/C(=N/P(=O)(Oc2ccccc2)Oc2ccccc2)N1Cc1cccc(OC(F)(F)F)c1 (stereo not given),inactive: -0.364
28,O=P(/N=C1/CC(CCCO)=CC(c2cccs2)N1Cc1cccc(OC(F)(F)F)c1)(Oc1ccccc1)Oc1ccccc1 (stereo not given),inactive: -1.99
29,CN1/C(=N\P(=O)(Oc2ccccc2)Oc2ccccc2)CC(c2ccc(CO)cc2)=CC1C1CC1 (stereo not given),inactive: -1.19
30,O=P(/N=C1/CC(CCCO)=CC(C2CC2)N1Cc1cccc(OC(F)(F)F)c1)(Oc1ccccc1)Oc1ccccc1 (stereo not given),inactive: 0.185
